These results are taken from patent US11311520B2, “Substituted dihydroimidazopyridinediones as MKNK1 and MKNK2 inhibitors” (Bayer Pharma Aktiengesellschaft, priority 2017, dated 2022).

By UniProt entry, the sequences of proteins in these tests, tags left out. Chains listed by the source or under a name are the forms on record and can include a tag or linker.
UniProt Q9BUB5, with tags, fused parts or gaps T344D limits assumed: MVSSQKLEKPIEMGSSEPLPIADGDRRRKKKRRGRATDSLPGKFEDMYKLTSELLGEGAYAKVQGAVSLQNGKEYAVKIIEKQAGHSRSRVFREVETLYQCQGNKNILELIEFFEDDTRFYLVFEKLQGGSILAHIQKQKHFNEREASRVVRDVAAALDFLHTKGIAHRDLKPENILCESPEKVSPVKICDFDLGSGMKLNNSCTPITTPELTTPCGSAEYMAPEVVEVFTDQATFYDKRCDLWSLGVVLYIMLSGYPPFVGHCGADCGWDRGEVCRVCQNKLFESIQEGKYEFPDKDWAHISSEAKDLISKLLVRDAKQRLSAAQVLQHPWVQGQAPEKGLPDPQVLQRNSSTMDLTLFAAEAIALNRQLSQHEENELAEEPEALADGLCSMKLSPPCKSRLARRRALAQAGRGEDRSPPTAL

For this assay, the target named is human full-length MKNK1 (Homo sapiens (Human), UniProt Q9BUB5, T344D). The assay can be described thus: MKNK1 kinase high ATP assay (TR-FRET). Particulars: read-out: MKNK1 IC50, 2 mM ATP, 15 min preincubation with enzyme, GST-MKNK1 (T344D). The protocol:
MKNK1 Kinase High ATP Assay
MKNK1-inhibitory activity at high ATP of compounds of the present invention after their preincubation with MKNK1 was quantified employing the TR-FRET-based MKNK1 high ATP assay as described in the following paragraphs.
A recombinant fusion protein of Glutathione-S-Transferase (GST, N-terminally) and human full-length MKNK1 (amino acids 1-424 and T344D of accession number BAA 19885.1), expressed in insect cells using baculovirus expression system and purified via glutathione sepharose affinity chromatography, was purchased from Carna Biosciences (product no 02-145) and used as enzyme. As substrate for the kinase reaction the biotinylated peptide biotin-Ahx-IKKRKLTRRKSLKG (SEQ ID NO: 1) (C-terminus in amide form) was used, which can be purchased e.g. from the company Biosyntan (Berlin-Buch, Germany) […]
The resulting mixture was incubated for 1 h at 22° C. to allow the formation of complex between the phosphorylated biotinylated peptide and the detection reagents. Subsequently the amount of phosphorylated substrate was evaluated by measurement of the resonance energy transfer from the Eu-chelate to the streptavidine-XL. Therefore, the fluorescence emissions at 620 nm and 665 nm after excitation at 350 nm were measured in a TR-FRET reader, e.g. a Rubystar (BMG Labtechnologies, Offenburg, Germany) or a Viewlux (Perkin-Elmer). […]

In the case of `Cc1cc(Nc2ncnc3scnc23)c(=O)n2c1C(=O)NC21CCC1`, the IC50 was 0.0116 µM.

The term IC50 denotes the concentration that inhibits the measured activity by half.
